## scFv variants of Ab-95 (light chain) against a SARS-CoV-2 spike peptide

Target: peptide PDVDLGDISGINAS, taken from heptad repeat 2 (HR2) of SARS-CoV-2 spike.

The variants keep the heavy chain, the linker and the frameworks of Ab-95 (scFv order VH, three GGGGS repeats, VL).
VH: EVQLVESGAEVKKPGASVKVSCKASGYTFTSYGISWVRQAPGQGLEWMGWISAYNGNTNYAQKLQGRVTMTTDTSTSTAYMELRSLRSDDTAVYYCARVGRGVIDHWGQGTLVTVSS
VL: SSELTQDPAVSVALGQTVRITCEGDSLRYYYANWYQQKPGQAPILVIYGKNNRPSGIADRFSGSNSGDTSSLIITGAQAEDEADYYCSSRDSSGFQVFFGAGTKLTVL

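The parent was found by panning a naive human phage display library on the peptide. AAYL52 was designed without a model: most single CDR substitutions and a random sample of double and triple ones. The assay is AlphaSeq: two haploid yeast populations carry antibody and antigen on their surface. Pairs that bind mate more often; barcode pairs of the diploids are counted by sequencing. Each replicate has its own calibration line, from reference interactions of the BCL2 family. Each pool was mated in three replicate cultures.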

Substitutions are numbered in sequence along the VL above, starting at 1 (not Kabat).
Affinities are written as log10 Kd with Kd in nM; a lower number is a better binder.
The mean shown is taken over the replicates in which the pair was detected.
A pair that was not seen in any replicate is written "nd"; this usually means weak binding, but a binder can also be missed.
Parent in this assay: reference entry 2.31, copy in this library 2.25.
As a blank, each scFv also met three strains without target: over library AAYL52, 28% of these pairings were detected, typically at 3.91 and seldom below 2.90.

| changes | mean, log10 nM | detected |
|---|---|---|
| S26N+D91S+V97P | 3.66 | 2/3 |
| E23M+G24M+A32V | 3.05 | 3/3 |
| R28K+G49V+K50T | 5.03 | 1/3 |
| A32P+N33T+G49L | 4.49 | 2/3 |
| Y30T+P54V+V97T | 2.02 | 3/3 |
| S26H+N51I+S93F | 4.01 | 2/3 |
| E23P+N52P+F98K | 5.75 | 1/3 |
| N52A+R53F | 4.34 | 2/3 |
| G49Y+F95V+F98G | 3.17 | 1/3 |
| N33A+K50D+R53L | nd | 0/3 |
| N51H+R53Q | 4.56 | 2/3 |
| G24H+D91W+G94H | 3.54 | 2/3 |
| N33A+R53Q+S89P | 3.74 | 1/3 |
| S26Q+R53Y+R90I | 3.56 | 1/3 |
| S55W+S92A+Q96N | 2.39 | 3/3 |
| A32P+G49S+P54N | 2.97 | 3/3 |
| D25N+R28V+A32I | 4.33 | 2/3 |
| A32C+F95M | 3.56 | 3/3 |
| Y30E+S55D+S89D | 1.19 | 3/3 |
| S26K+S55C+G94F | nd | 0/3 |
| G24M+S88L+R90S | 3.76 | 3/3 |
| K50G+S93P+F98S | 1.78 | 3/3 |
| Y31G+N51G+S89I | nd | 0/3 |
| Y31F+G49T+Q96P | nd | 0/3 |
| G24Y+D25I+R53C | 4.29 | 1/3 |
| E23F+S89L+F98R | 2.72 | 3/3 |
| S88C+S93C+F98N | 2.68 | 3/3 |
| L27N+D91K+S93C | 3.83 | 1/3 |
| S26I+N33V+S89M | 4.49 | 1/3 |
| G24H+A32P+N51R | 3.50 | 2/3 |
| Y31K+S93K+Q96F | nd | 0/3 |
| Y31L+R53Q+G94V | 3.45 | 1/3 |
| R28I+N52W | 3.82 | 3/3 |
| S26M+Q96P+V97S | 3.70 | 1/3 |
| G49T+N51A+R90G | 3.56 | 1/3 |
| R28S+S89D+D91M | 3.40 | 2/3 |
| E23T+G24Y+D25R | 2.46 | 3/3 |
| L27A+N52C+Q96H | 4.22 | 3/3 |
| Y31C+R90H+D91V | 1.59 | 3/3 |
| S89Y+S92N+Q96C | 2.25 | 3/3 |
| R53H+S92F+F98G | 4.14 | 3/3 |
| S88T+S93K+V97S | 2.57 | 3/3 |
| G49L+S89R+F95D | nd | 0/3 |
| E23W+Y31I+S92A | 3.23 | 1/3 |
| E23G+S88K+F95W | 3.06 | 1/3 |
| N33T+R53H+S88K | 4.36 | 2/3 |
| G24L+N33D+K50W | 3.41 | 1/3 |
| R90C+F95H+F98S | 3.71 | 1/3 |
| Y30C+G49Q+R90I | 3.86 | 1/3 |
| N33H+P54Y+G94Y | nd | 0/3 |
| S55Y+S92D+V97G | 2.99 | 3/3 |
| E23S+S92P+S93G | 2.25 | 3/3 |
| D25L+L27M+A32H | 4.85 | 1/3 |
| A32M+S55N+Q96I | 3.88 | 2/3 |
| G24P+Y31A+S92D | 3.69 | 2/3 |
| S89M+S93Q+V97Q | 3.35 | 2/3 |
| D25V+Y31S+S89R | 3.94 | 2/3 |
| Y29W+D91I+S92A | nd | 0/3 |
| D25I+Y29H+A32W | 4.04 | 1/3 |

Extract of 3 entries:

| changes | mean, log10 nM | detected |
|---|---|---|
| Y30E+S55D+S89D | 1.19 | 3/3 |
| D25V+Y31S+S89R | 3.94 | 2/3 |
| R28S+S89D+D91M | 3.40 | 2/3 |

Data: MIT Lincoln Laboratory AlphaSeq set, Engelhart et al. 2022, doi:10.1038/s41597-022-01779-4, as distributed in FLAb.